{"source": "paper PMC8413131", "about": "(Oncogene, 2021)", "tested_on": "wild-type AR (WT-AR)", "assay": "PSA luciferase reporter, WT-AR in 293 cells", "type": "cell-based", "conditions": "FBS conditions, 16 hours, Fig.2G", "data": [{"smiles": "CNC(=O)c1ccc(N2C(=S)N(c3cnc(C#N)c(C(F)(F)F)c3)C(=O)C23CCC3)cc1F", "note": "[Apal, apalutamide]", "values": [{"measurement": "WT-AR transcriptional activity", "value": "suppress"}]}]}
